pEC50: −log10 of the molar value. Peptide text beside a SMILES is read from it.
Assays:
TB40-BAC4 = format: cell-based, Human cytomegalovirus; details: 2 h
HSV-1 R10.2 = experiment: Inhibition of cell-free HSV-1 infection of HFFs; format: cell-based, herpes simplex virus 1; details: versus TB40-BAC4, 1 h preincubation, MOI 1, fixed 6 h p.i.
HSV-2 R6 = experiment: Inhibition of cell-free HSV-2 infection of HFFs; format: cell-based, herpes simplex virus 2; details: versus TB40-BAC4, 1 h preincubation, MOI 1, fixed 6 h p.i.
HFFs = format: cell-based, human

CC[C@H](C)[C@H](NC(=O)[C@H](C)NC(=O)[C@H](CO)NC(=O)[C@H](CC(=O)O)NC(=O)[C@H](CC(=O)O)NC(=O)[C@H](CC(=O)O)NC(=O)[C@H](CCC(=O)O)NC(=O)[C@@H](NC(=O)[C@@H](NC(=O)[C@@H](NC(=O)[C@H](CC(C)C)NC(=O)[C@H](Cc1ccc(O)cc1)NC(=O)[C@H](CC(=O)O)NC(=O)[C@@H](NC(=O)[C@H](CCSC)NC(=O)CNC(=O)[C@H](CC(C)C)NC(=O)[C@@H]1CCCN1C(=O)[C@@H](NC(=O)[C@H](Cc1ccccc1)NC(=O)[C@H](C)NC(=O)[C@@H](NC(=O)[C@H](CC(=O)O)NC(=O)[C@@H]1CCCN1C(=O)[C@H](CC(=O)O)NC(=O)[C@@H]1CCCN1C(=O)[C@@H](NC(=O)[C@H](Cc1ccc(O)cc1)NC(=O)[C@@H](NC(=O)[C@H](Cc1ccc(O)cc1)NC(=O)[C@@H](NC(=O)[C@H](Cc1c[nH]cn1)NC(=O)[C@H](CCCNC(=N)N)NC(=O)CN)[C@@H](C)CC)[C@@H](C)CC)C(C)C)C(C)C)C(C)C)[C@@H](C)O)C(C)C)[C@@H](C)CC)C(C)C)C(=O)N[C@H](C(=O)N1CCC[C@H]1C(=O)N[C@@H](CS)C(=O)N[C@@H](CCCNC(=N)N)C(=O)N[C@H](C(=O)N[C@H](C(=O)O)[C@@H](C)O)[C@@H](C)O)[C@@H](C)CC [GT40]
pEC50 (TB40-BAC4): 5.59

CC[C@H](C)[C@H](NC(=O)[C@H](Cc1ccc(O)cc1)NC(=O)[C@@H](NC(=O)[C@H](Cc1c[nH]cn1)NC(=O)[C@H](CCCNC(=N)N)NC(=O)CN)[C@@H](C)CC)C(=O)N[C@@H](Cc1ccc(O)cc1)C(=O)N[C@H](C(=O)N1CCC[C@H]1C(=O)N[C@@H](CC(=O)O)C(=O)N1CCC[C@H]1C(=O)N[C@@H](CC(=O)O)C(=O)N[C@H](C(=O)N[C@@H](C)C(=O)N[C@@H](Cc1ccccc1)C(=O)N[C@H](C(=O)N1CCC[C@H]1C(=O)N[C@@H](CC(C)C)C(=O)NCC(=O)N[C@@H](CCSC)C(=O)N[C@H](C(=O)N[C@@H](CC(=O)O)C(=O)N[C@@H](Cc1ccc(O)cc1)C(=O)N[C@@H](CC(C)C)C(=O)N[C@H](C(=O)N[C@H](C(=O)N[C@H](C(=O)N[C@@H](CCC(=O)O)C(=O)N[C@@H](CC(=O)O)C(=O)N[C@@H](CC(=O)O)C(=O)O)C(C)C)[C@@H](C)CC)C(C)C)[C@@H](C)O)C(C)C)C(C)C)C(C)C [GD30] (H-GRHIYIYVPDPDVAFVPLGMTDYLVIVEDD-OH; N-terminus and C-terminus assumed)
pEC50 (TB40-BAC4): 5.68 | Shift in EC50 toward the higher dose range compared to HCMV (HSV-1 R10.2): 5.9 fold | Shift in EC50 toward the higher dose range compared to HCMV (HSV-2 R6): 9.6 fold | Cell viability relative to DMSO containing medium (HFFs): does not affect cell viability
